According to patent publication US20210346398A1, “COMBINATIONS WITH A C-19 STEROID FOR TREATING CANCERS” (priority 2018, published 2021):

How the values were obtained:
Type in all cases: cell-based, human
Details in all cases: 4 days, agent plus 4-OHT versus agent alone
MDAMB453 = assay: WST-1 proliferation assay of MDAMB453 cells
ZR-75-1 = assay: WST-1 proliferation assay of ZR-75-1 cells
T-47D cells = assay: WST-1 proliferation assay of T-47D cells
Source text: The human breast cancer cell line T-47 D (ACC 739) was obtained from DSMZ as frozen cell pellet (Deutsche Sammlung von Mikroorganismen und Zellkulturen). Originally, these cells T-47D cell line was isolated by Keydar et al. (1979) from a pleural effusion obtained from a patient with an infiltrating ductal carcinoma of the breast T-47D is expressing the ER, PR and AR but lacking HER2/neu overexpression. Thus, T-47D may represent a cell line representative for the most prevalent breast cancer subtype.
T-47D were grown routinely in RPMI medium containing 10% fetal calf serum (FCS) and antibiotics in a humidified incubator at 36.5° C./90% humidity and 5% CO2. Cells were maintained in cell culture bottles for less than 20 passages before the individual experiments were conducted; cell suspensions were cultured 96 well plates and exposed at various concentrations of the individual agents; incubation time varied as indicated in the respective figures. WST-1 assay was used to monitor proliferation at 450 nm wavelength.
Growth was as compared to control using WST-1 assay (monitoring absorption at 450 nm wavelength as indicator for cell viability compared to growth control).
T-47D cells were grown routinely in RPMI medium containing 10% fetal calf serum (FCS) and antibiotics in a humidified incubator at 36.5° C./90% humidity and 5% CO2. […]

SMILES	SE1 (synergistic effect, A anti-cancer compound alone / A combination) (MDAMB453)	SE1 (synergistic effect, A anti-cancer compound alone / A combination) (ZR-75-1)	SE1 (synergistic effect, A anti-cancer compound alone / A combination) (T-47D cells)
CC(=O)O[C@@]12CO[C@@H]1C[C@H](O)[C@@]1(C)C(=O)[C@H](O)C3=C(C)[C@@H](OC(=O)[C@H](O)[C@@H](NC(=O)OC(C)(C)C)c4ccccc4)C[C@@](O)([C@@H](OC(=O)c4ccccc4)[C@H]21)C3(C)C [Docetaxel]	1.2	–	–
C=C1C[C@@H]2[C@H](CC[C@]3(C)C(=O)CC[C@@H]23)[C@@]2(C)C=CC(=O)C=C12 [Exemestane]	3.6	1.4	–
C[C@]12CC[C@@H]3c4ccc(O)cc4C[C@@H](CCCCCCCCC[S+]([O-])CCCC(F)(F)C(F)(F)F)[C@H]3[C@@H]1CC[C@@H]2O (stereo partly drawn) [Fulvestrant]	2.9	2.1	1.7
